# Experimental data from PubChem BioAssay AID624464 (National Center for Advancing Translational Sciences (NCATS), 2012).
# The chains behind the UniProt entries cited, without tags or fusion partners.
# UniProt P14416, whole entry: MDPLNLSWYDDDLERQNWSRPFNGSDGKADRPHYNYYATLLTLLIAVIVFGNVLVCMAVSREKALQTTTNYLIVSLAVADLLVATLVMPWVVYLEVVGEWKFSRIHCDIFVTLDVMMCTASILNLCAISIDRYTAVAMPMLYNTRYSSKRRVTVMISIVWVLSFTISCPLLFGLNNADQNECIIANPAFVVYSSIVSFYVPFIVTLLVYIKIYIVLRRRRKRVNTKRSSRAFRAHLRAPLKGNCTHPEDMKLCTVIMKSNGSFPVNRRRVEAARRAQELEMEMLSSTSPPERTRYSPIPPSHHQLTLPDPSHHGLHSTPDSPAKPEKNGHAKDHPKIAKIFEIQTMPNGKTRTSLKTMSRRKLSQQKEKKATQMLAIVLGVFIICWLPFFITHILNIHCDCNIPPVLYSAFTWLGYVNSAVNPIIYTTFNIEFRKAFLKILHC
# The list shows a part of the results, in another mix than the full data. The source made the active and inactive calls. Rule as the data show it: active = potentiation above about 50%; inconclusive = mostly about 30% to 49%; inactive = weaker than that.
# Target: D(2) dopamine receptor (Homo sapiens) (UniProt P14416)
# Assay: Beta-Arrestin HTS for Positive Allosteric Modulators of the Human D2 Dopamine Receptor: Potentiators
# Conditions: DiscoveRx D2 beta-arrestin cells, luminescence, 90 min; stronger effect = higher value; 100% = 57 uM dopamine signal
# Text: There is great interest in identifying small molecule ligands for G-protein coupled receptors (GPCRs) as nearly 50% of all FDA-approved drugs target these important receptor proteins. […] Amongst the dopamine receptors (DARs), the D2 is arguably one of the most validated drug targets in neurology and psychiatry. For instance, all receptor-based antiparkinsonian drugs primarily work via stimulating the D2 DAR, whereas all FDA-approved antipsychotic agents are antagonists of this receptor. The D2 DAR is also therapeutically targeted in other disorders such as restless legs syndrome, tardive dyskinesia, Tourette's syndrome, and hyperprolactinemia.
# To this end, a miniaturized qHTS screen was developed to be screened against the Molecular Libraries Small Molecule Repository (MLSMR). This assay seeks to identify potentiators against the D2 DAR.
# NIH Molecular Libraries Probe Production Network [MLPCN]
# NIH Chemical Genomics Center [NCGC]
# PI Name: David Sibley, National Institutes of Neurological Disorders and Stroke
# DiscoveRx D2 cells were thawed from frozen stock and seeded at 2,100 cells/ 3 uL/well media (DiscoveRx Plating Reagent 2) with MultiDrop Combi dispenser (Thermo Scientific, Logan, UT) onto white tissue culture treated 1536-well Aurora plates (Brooks Automation, Chelmsford, MA) and allowed to attach overnight at 37 deg C, 5% CO2. Next, 23 nL/well of compound solutions in DMSO were added with a pintool transfer (Kalypsis, San Diego, CA). As the positive control, 1 uL/well dopamine (EC100, 57 uM final concentration) diluted in buffer (HBSS + 10 mM HEPES + SMB + 0.1 %Tween-20) was dispensed to 1 column of each plate. EC20 (Dopamine at 50 nM final concentration) was dispensed to the rest of the plate except columns 1 &2 which were used as negative control (EC=0, buffer only), 1 uL/well as well. The cells were stimulated by compounds and dopamine for 90 minutes at 37 deg C, 5% CO2, after which 1.5 uL/well of DiscoveRx detection reagent was added with BioRAPTR FRD dispenser. The detection reagent was prepared by mixing of Galacton Star Substrate, Emerald II solution and PathHunter buffer (supplied by the assay kit) together at 1:5:19 proportion accordingly just prior to dispensing. The plates were incubated at ambient temperature for 1 hour and then the luminescent signal was read on ViewLux plate reader (PerkinElmer, Waltham, MA).
row,SMILES,potentiation
1,CN(C)CCOC(=O)C(O)(c1ccccc1)C1CCCCC1 (centres undefined),inactive: -14.7%
2,C[C@H]1OP(=O)(Oc2ccccc2)[C@H](O)[C@H](O)[C@H]1N=[N+]=[N-] (some centres undefined),inactive: -4.1%
3,O=[As](O)(c1ccccc1)c1ccc(O)cc1,inactive: -2.21%
4,Cc1cc(-c2cccc3ccccc23)c(C)cn1.O=[N+]([O-])c1cc([N+](=O)[O-])c(O)c([N+](=O)[O-])c1,inactive: -18.5%
5,O=[N+]([O-])c1ncn(CCn2cnc([N+](=O)[O-])n2)n1,inactive: 3.45%
6,CC(=O)NC(SC(=S)N(C)C)C(Cl)(Cl)Cl (centres undefined),inactive: -11.2%
7,O=[N+]([O-])c1ccc(OP2(=O)COCCO2)cc1 (centres undefined),inactive: -3.49%
8,O=[N+]([O-])c1ccc(O)c(/C=N/Nc2ccc([N+](=O)[O-])cc2[N+](=O)[O-])c1,inactive: 7.6%
9,O=C(OC1CN2CCC1CC2)c1cccc(Cl)c1 (centres undefined),inactive: -15.4%
10,Cc1c(C(c2ccc3c(c2)OCO3)c2c(C)n(C)n(-c3ccccc3)c2=O)c(=O)n(-c2ccccc2)n1C.O=[N+]([O-])c1cc([N+](=O)[O-])c(O)c([N+](=O)[O-])c1,inactive: -2.91%
11,C(Cc1nn[nH]n1)Cc1nn[nH]n1,inactive: -13%
12,Nc1ccc([As](=O)(O)c2ccc([N+](=O)[O-])cc2)cc1,inactive: -0.672%
13,O=P1(N(CCCl)CCCl)OCCCS1 (centres undefined),inactive: -4.07%
14,Nc1ccc2c(ccc3cccnc32)n1.O=[N+]([O-])c1cc([N+](=O)[O-])c(O)c([N+](=O)[O-])c1,inactive: -15%
15,CP(=O)(OC12CC3CC(CC(C3)C1)C2)OC12CC3CC(CC(C3)C1)C2,inactive: -4.02%
16,CCOC(=O)c1ccc(NP(C)(=O)Oc2ccc(Cl)cc2)cc1 (centres undefined),inactive: -4.81%
17,O=C(Nc1cc([As](=O)(O)O)ccc1O)c1ccccc1,inactive: 8.79%
18,O=[N+]([O-])c1ncn(CCn2ncnc2[N+](=O)[O-])n1,inactive: 1.51%
19,CC(C)(C)C(=O)NC(Sc1ccncn1)C(Cl)(Cl)Cl (centres undefined),inactive: -5.75%
20,O=C(O)CNc1ccc([As](=O)(O)O)cc1,inactive: -19.6%
21,COC(=O)C1(C)COP(=O)(Nc2ccccc2)OC1 (centres undefined),inactive: -9.6%
22,O=[N+]([O-])c1cccc(NC2=NCC(CBr)S2)c1 (centres undefined),inactive: -18.2%
23,CCN(CC)CC(O)COC(=O)C(O)(c1ccccc1)C1CCCCC1 (centres undefined),inactive: -14.2%
24,COc1ccc(OP(C)(=O)Nc2ccc(Br)cc2)cc1 (centres undefined),inactive: -21.1%
25,COc1ccc(C2=NCC(CBr)S2)cc1 (centres undefined),inactive: -11%

row,SMILES,potentiation
1,CP(=O)(Oc1ccccc1)N1CCOC1=O (centres undefined),inactive: 1.45%
2,Cc1ccc(NP(=O)(Oc2ccccc2)Oc2ccccc2)nc1,inactive: -2.01%
3,CC(=O)N1C2C3N(C(C)=O)C1C1N(C(C)=O)C(C(N1C(C)=O)N3C(C)=O)N2C(C)=O,inactive: -21.9%
4,O=[N+]([O-])c1cccc2n[nH]nc12,inactive: -7.24%
5,COc1ccccc1OP(C)(=O)Nc1c(C)n(C)n(-c2ccccc2)c1=O (centres undefined),inactive: 0.424%
6,O=C(OCCCN1CCCC1)C(O)(c1ccccc1)C1CCCCC1 (centres undefined),inactive: -33.1%
7,CCN(/C(=N/P(=O)(N1CCOCC1)N1CCOCC1)N1CCOCC1)c1ccc(OC)cc1,inactive: -15.9%
8,CP(=O)(Nc1ccc(Cl)cc1)Oc1ccc(F)cc1 (centres undefined),inactive: -4.41%
9,COc1ccccc1OP(C)(=O)Nc1ccccc1Br (centres undefined),inactive: -7.83%
10,Nc1ccc([As](=O)(O)c2ccc(N)cc2)cc1,inactive: -4.58%
11,CC(C)(C)c1ccc(OP(C)(=O)O)cc1,inactive: -6.89%
12,CC1CCN(C(=O)Oc2c(Cl)cc(Cl)c3cccnc23)CC1,inactive: -4.13%
13,c1cc(-c2nn[nH]n2)ccc1-c1nn[nH]n1,inactive: -12.8%
14,CC(C)c1nc(Nc2ccccc2)n(P(=O)(N(C)C)N(C)C)n1,inactive: -6.42%
15,CC(C)=N/N=C(\N)N[N+](=O)[O-],inactive: -4.16%
16,CN(C)C(=O)c1c([N+](=O)[O-])cc([N+](=O)[O-])cc1[N+](=O)[O-],inactive: -27.1%
17,CN(C)C(=O)OCCc1n(C)cc[n+]1C,inactive: -9.02%
18,CN(C(=O)Cc1ccc(Cl)c(Cl)c1)[C@H]1CCCC[C@H]1N1CCCC1,inactive: -20.9%
19,COc1ccccc1OP(C)(=O)Nc1ccc(Br)cc1 (centres undefined),inactive: -3.01%
20,Cc1ccc(N/C(=N/P(=O)(N2CCOCC2)N2CCOCC2)N2CCOCC2)cc1,inactive: -4.38%
21,NC(=O)c1cc([N+](=O)[O-])cc([N+](=O)[O-])c1N,inactive: -2.3%
22,CN1CCCC(OC(=O)C(c2ccccc2)c2ccccc2)C1 (centres undefined),inactive: -32.2%
23,CN(C)CCOC(=O)C(O)(c1ccccc1)C1CCCC1 (centres undefined),inactive: -25.2%
24,Clc1ccc(Cl)c(NC2=NCC(CBr)S2)c1 (centres undefined),inactive: -5.39%
